Test results: paper PMC11345828 (Journal of Medicinal Chemistry, 2024)

Tests used:
MV-4-11 cells = conditions: IP, 75 mg/kg QDx21; cited from earlier work
NCI-H929 cell line = test system: NCI-H929 cell line
Procedure: NCI-H1048 were cultured in custom medium prepared by PanBioTech containing DMEM/F12 + 5% fetal calf serum, 0.005 mg/mL insulin, 0.01 mg/mL transferrin, 30 nM sodium selenite, 10 nM hydrocortisone, 10 nM β-estradiol and […] 2 mM L-glutamine.
Suspension cells were plated immediately before compound addition. Adherent cell lines were incubated overnight at 37 °C in a tissue culture incubator prior to compound addition. Compounds were added in triplicates using an HP D300e Digital Dispenser (Hewlett-Packard) or manually at the concentrations indicated and total volumes were normalized using dimethyl sulfoxide (DMSO) backfill, with final DMSO concentration of 0.5%. Control wells were treated with DMSO only.

[1] = test system: NCI-H929 cell line-derived MM xenograft; test: NCI-H929 subcutaneous multiple myeloma xenograft model; format: in vivo, mouse; conditions: single dose IV
Procedure: Caspase-Glo 3/7 Assay (PROMEGA #G8090) was performed according to manufacturer’s instructions using 200 ng of sample lysate in a total volume of 100 μL per well. 100 μL of the GLO reagent were added, mixed, and incubated for 90 min at room temperature. The plate was measured on an EnSpireTM Plate reader (luminescence, 0.1s).
Female BomTac:NMRI-Foxn1nu mice and CB17/Icr-Prkdc(scid)/IcrCrl and were obtained from Taconic Denmark at an age of 6–8 weeks. After arrival of the local animal facility at Boehringer Ingelheim RCV GmbH & Co KG mice were allowed to adjust to housing conditions at least for 5 days before the start of the experiment. Mice were group-housed under pathogen-free and controlled environmental conditions and handled according to the institutional, governmental and European Union guidelines (Austrian Animal Protection Laws, GV-SOLAS and FELASA guidelines). Animal studies were approved by the internal ethics committee and the local governmental committee. To establish subcutaneous tumors mice were injected with 5 × 10^6 A427cells in Matrigel (CB17/Icr-Prkdc(scid)/IcrCrl), 1 × 10^6 NCI-H1048 cells in Matrigel (BomTac:NMRI-Foxn1nu and 5 × 10^6 NCI-H929 cells in Matrigel (CB17/Icr-Prkdc(scid)/IcrCrl). Tumor diameters were measured with a caliper three times a week. The volume of each tumor [in mm^3] was calculated according to the formula “tumor volume = length × diameter^2 × π/6.” To monitor side effects of treatment, mice were inspected daily for abnormalities and body weight was determined three times per week. Animals were sacrificed when the tumors reached a size of 1500 mm^3. […] Tumors were reported as regressing when the tumor volume at a given day was below the tumor volume at treatment start.

[2] = test system: A427 cell line-derived NSCLC xenograft; test: A427 NSCLC subcutaneous xenograft model; format: in vivo, mouse; conditions: 26 at 60 mg/kg q7d IV, single agent
Procedure: After fixation, tumor samples were embedded in paraffin blocks. Two-μm thick sections of each FFPE-block were prepared on a microtome, placed on glass slides and dewaxed. H&E staining was performed using Papanicolaous Solution 1a Harris′ Hematoxylin solution (Merck) and Shandon Eosin Y aqueous (Thermo) on the Gemini stainer (Thermo). […] Analysis was performed using HALO image analysis software 2.1 (Indica Laboratories). Quantification of Ki67 positivity was performed using multiplex IHC module with integrated AI based nucleus detection and a threshold set for positive nuclei was used. Viable tumor area was calculated from H&E staining using AI based classifier Densenet V2.
Female BomTac:NMRI-Foxn1nu mice and CB17/Icr-Prkdc(scid)/IcrCrl and were obtained from Taconic Denmark at an age of 6–8 weeks. After arrival of the local animal facility at Boehringer Ingelheim RCV GmbH & Co KG mice were allowed to adjust to housing conditions at least for 5 days before the start of the experiment. Mice were group-housed under pathogen-free and controlled environmental conditions and handled according to the institutional, governmental and European Union guidelines (Austrian Animal Protection Laws, GV-SOLAS and FELASA guidelines). Animal studies were approved by the internal ethics committee and the local governmental committee. […]

In the case of `Cc1cc(OCCCc2c3n(c4c(-c5c(C)nn(C)c5C)c(Cl)ccc24)[C@H](C)CN(c2cn(C)c4ccc(C(=O)O)cc24)C3=O)cc(C)c1Cl` [Compound 9], the “tumor burden in blood, bone marrow, and spleen” value (MV-4-11 cells) is listed as “nearly eliminated MV-4-11 cells”.
In the case of `COc1ccc(N2C[C@@H](C)n3c(c(CCCOc4cc(C)c(Cl)c(C)c4)c4ccc(Cl)c(-c5c(C)nn(C)c5C)c43)C2=O)c2c1cc(C(=O)O)n2C` [Compound 13, (R)-7-(7-Chloro-10-(3-(4-chloro-3,5-dimethylphenoxy)propyl)-4-methyl-1-oxo-6-(1,3,5-trimethyl-1H-pyrazol-4-yl)-3,4-dihydropyrazino[1,2-a]indol-2(1H)-yl)-4-methoxy-1-methyl-1H-indole-2-carboxylic Acid], the “improvement in NCI-H929 GI50 relative to 10” value (NCI-H929 cell line) is reported as ~2 fold.
In the case of `COc1c(OCC2CCOCC2)cc(N2C[C@@H](C)n3c(c(CCCOc4cc(C)c(Cl)c(C)c4)c4ccc(Cl)c(-c5c(C)nc(C)nc5C)c43)C2=O)c2c1cc(C(=O)O)n2C` [Compound 26, (R)-7-(7-Chloro-10-(3-(4-chloro-3,5-dimethylphenoxy)propyl)-4-methyl-1-oxo-6-(2,4,6-trimethylpyrimidin-5-yl)-3,4-dihydropyrazino[1,2-a]indol-2(1H)-yl)-4-methoxy-1-methyl-5-((tetrahydro-2H-pyran-4-yl)methoxy)-1H-indole-2-carboxylic Acid], the “impact on tumor growth in vivo” value (NCI-H1048 SCLC xenograft; 26 alone) is reported as “no impact on tumor growth”, the “Tumor regression d16” value (NCI-H1048 SCLC xenograft; 26 at 60 mg/kg q7d) is reported as 0 x/8 and the “Tumor regressions d21” value ([1]; 60 mg/kg) is reported as 0 x/8. For the same compound, the “tumor regression persisted until day after dosing start” value ([1]; 60 mg/kg) was 7 days, the “Tumor regressions d21” value ([1]; 80 mg/kg) was 6 x/8 and the “tumor regression persisted until day” value ([1]; 80 mg/kg) was 15 days. The “Tumor regressions d21” value [2] was 1 x/8 and the “tumor outgrowth occurring around day after treatment start” value [2] was ~7 days.
